According to patent US20230190774A1, “METHOD OF USING SUBSTRATES OF AKR1Bl/AKR1B10 AS ANTI-CANCER DRUGS” (Beijing Normal University Hong Kong Baptist University …, priority 2015, published 2023):

Test: Acute toxicity test in mice
Settings: i.v., n=8

SMILES: O=CC(O)CO (racemic) [Glyceraldehyde, glyceraldehyde]
- Death/Total (dose 1000 mg/kg BW): 0/8
- Death/Total (dose 2000 mg/kg BW): 0/8
